## Yeast mating assay B: variants of the scFv Ab-14

Source: Li et al. 2023 (doi:10.1038/s41467-023-39022-2), MIT Lincoln Laboratory and A-Alpha Bio; data file from the FLAb repository.

All variants were tested on one target, the spike HR2 peptide PDVDLGDISGINAS (SARS-CoV-2).

Ab-14 is the parent antibody, in scFv form: VH, then three GGGGS repeats, then VL. The heavy chain is unchanged in all variants.
VH: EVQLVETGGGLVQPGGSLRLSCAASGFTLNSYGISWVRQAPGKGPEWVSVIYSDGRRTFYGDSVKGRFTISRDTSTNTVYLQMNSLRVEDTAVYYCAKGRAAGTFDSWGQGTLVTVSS
VL: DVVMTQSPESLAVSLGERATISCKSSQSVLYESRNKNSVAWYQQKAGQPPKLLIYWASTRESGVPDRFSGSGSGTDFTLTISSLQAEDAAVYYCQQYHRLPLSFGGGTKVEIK

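Designed CDR sequences, proposed from the first random library and measured here. Their group label is 14L_Ctrl (Ctrl: baseline library sampled from a position-specific scoring matrix, with some repeated check sequences). Affinity was read by AlphaSeq, a pooled yeast mating assay with surface-displayed partners. Mating (16 h, 30 °C) was followed by selection of diploids and sequencing of their barcodes. A regression on co-assayed BCL2-family reference pairs converts the normalised counts of each replicate to an apparent Kd. Each pool was mated in six replicate cultures.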

Changes read parent residue, position, new residue, counted from the first residue of the VL shown.
Scale: log10 of Kd in nM, estimated from mating counts; low values are strong binders.
The mean shown is taken over the replicates in which the pair was detected.
A pair that was not seen in that replicate is written "nd"; this usually means weak binding, but a binder can also be missed.
As a blank, each scFv also met three strains without target: over all light chain designs, 4% of these pairings were detected, typically at 2.64 and seldom below 1.59. Also given: how often the same scFv was detected with the empty control strains.
A sequence measured in both rounds can read differently, since the two assays cover different ranges.
The parent sequence was in this pool as ten entries: three were never detected, three once, and four in most replicates, with averages from 0.34 to 2.37.
The authors averaged sequences with at least three values out of six and counted those with two or fewer as poor binders.

For Q27G/N35E/E61S, the assay gave nd, nd, nd, 1.98, nd, nd (controls 0 of 18).
For W56E/Q96T/H98D, the assay gave 1.02, 0.75, 0.53, 0.07, 0.26, 0.79 (mean 0.57; controls 0 of 18).
For S26H/S28E/V29P/S33Q/R34A/N35P, the assay gave 2.59, nd, nd, 2.36, 2.11, nd (mean 2.35; controls 1 of 18).
For S25I/Q27P, the assay gave -0.07, -0.09, -0.03, -0.30, -0.03, 0.11 (mean -0.07; controls 1 of 18).
For S26T/R34N/H98A, the assay gave 1.55, 1.38, nd, 1.80, 1.72, 0.78 (mean 1.45; controls 0 of 18).
For S25V/L30D/T59H, the assay gave 1.41, 1.20, 0.74, 1.27, 1.04, 0.79 (mean 1.08; controls 4 of 18).
For S25N/V29F/Y31M/W56S, the assay gave nd, 2.22, nd, nd, nd, nd (controls 0 of 18).
For S25M/Q27G/S28Q/Y31D/R34T, the assay gave 0.81, 0.82, 0.69, 0.89, 0.79, 0.87 (mean 0.81; controls 4 of 18).
For K24Q/W56D/E61P, the assay gave 0.68, 0.37, 0.45, 0.34, -0.04, 0.54 (mean 0.39; controls 1 of 18).
For S25L/Y31M/K36A/W56G/A57C, the assay gave 0.52, 0.77, 0.60, 0.34, 0.22, 0.38 (mean 0.47; controls 2 of 18).
For S33G/R99M, the assay gave 2.07, 2.34, 1.31, 1.63, 2.11, 1.67 (mean 1.85; controls 0 of 18).
For Q27I/S28P/E32G/S38P, the assay gave nd, nd, nd, nd, nd, 1.58 (controls 0 of 18).
For N35Q/N37D/W56E/S103F, the assay gave 0.63, 0.73, 0.62, 0.65, 0.44, 0.74 (mean 0.63; controls 0 of 18).
For E32C/K36G/S38H/W56A, the assay gave 0.96, 1.30, 0.78, 1.14, 1.09, 1.18 (mean 1.08; controls 3 of 18).
For S26M/L30S, the assay gave nd, nd, nd, nd, nd, nd (controls 0 of 18).
For S33G/W56E, the assay gave 0.32, 0.15, 0.62, 0.00, 0.19, 0.35 (mean 0.27; controls 1 of 18).
For N35E/N37Y, the assay gave 2.17, 2.00, nd, nd, nd, nd (mean 2.09; controls 1 of 18).
For S25L/S33E/Y97C, the assay gave nd, nd, nd, nd, nd, 2.94 (controls 0 of 18).
For S25M/Y31A/R34D/N35E, the assay gave nd, nd, nd, nd, 1.74, nd (controls 0 of 18).
For Q27P/Y31L/S33C/S38Q, the assay gave nd, nd, nd, nd, nd, nd (controls 0 of 18).
For K36N/S62K, the assay gave 1.94, 1.16, 1.04, 1.12, 0.92, 1.63 (mean 1.30; controls 2 of 18).
For V29M/R34N/S62D, the assay gave 1.14, 1.14, 1.18, 0.72, 1.29, 1.08 (mean 1.09; controls 0 of 18).
For V29L/R34F/W56A/S58K/Q95Y/R99S, the assay gave nd, nd, nd, nd, nd, nd (controls 0 of 18).
For W56E/H98Y, the assay gave 0.60, 0.58, 0.30, 0.51, 0.64, 0.62 (mean 0.54; controls 1 of 18).
For E32N/W56S, the assay gave 1.43, 1.25, 0.96, 1.36, 1.05, 1.38 (mean 1.24; controls 0 of 18).
For W56R/H98S, the assay gave 2.14, 2.38, 1.92, 2.62, nd, 2.44 (mean 2.30; controls 0 of 18).
For S25L/W56N/H98I/S103G, the assay gave -0.42, -0.09, -0.51, -0.62, -0.18, -0.11 (mean -0.32; controls 0 of 18).
For S25D/H98A, the assay gave nd, 1.04, nd, 0.78, nd, 1.18 (mean 1.00; controls 0 of 18).
For S26Y/V29Y/V39M/W56G, the assay gave 0.54, 0.21, 0.23, 0.24, 0.43, 0.52 (mean 0.36; controls 1 of 18).
For Q27S/S58T/T59H/S103E, the assay gave nd, 2.37, 3.33, 2.42, 2.45, nd (mean 2.64; controls 1 of 18).
For W56E/A57C/S62D, the assay gave 1.80, 0.83, 1.45, 1.42, 1.36, 0.75 (mean 1.27; controls 0 of 18).
For K36Q/W56Q, the assay gave 0.52, 0.04, 0.23, -0.14, 0.17, 0.09 (mean 0.15; controls 1 of 18).
For W56S/R99Y, the assay gave 1.57, 2.12, nd, 1.25, 2.04, 2.07 (mean 1.81; controls 0 of 18).
For S33Q/K36V/T59N, the assay gave nd, nd, nd, nd, nd, nd (controls 0 of 18).
For S62A/R99S, the assay gave 2.36, 1.93, 2.43, 2.50, 2.83, 2.97 (mean 2.50; controls 2 of 18).
For Y31S/R34G/E61G/L100Y, the assay gave nd, nd, nd, nd, nd, 2.03 (controls 0 of 18).
For S25C/K36G, the assay gave nd, nd, nd, nd, nd, nd (controls 2 of 18).
For W56G/T59V/S62D, the assay gave 0.48, 0.35, 0.24, 0.27, 0.21, 0.37 (mean 0.32; controls 1 of 18).
For S33M/L100Y, the assay gave nd, nd, nd, nd, nd, nd (controls 0 of 18).
For W56S/P101K, the assay gave nd, 0.98, 1.05, 0.52, 1.05, 1.13 (mean 0.95; controls 0 of 18).
For Q27Y/E32N/R34T, the assay gave nd, nd, nd, nd, nd, nd (controls 0 of 18).
For S62W, the assay gave nd, nd, 2.16, nd, nd, nd (controls 0 of 18).
For S26M/V29T/N35Y/S103P, the assay gave nd, nd, nd, nd, nd, nd (controls 1 of 18).

4 of these entries, quoted again:

| changes | replicates, log10 nM | log10 Kd (nM), mean | signal with controls |
|---|---|---|---|
| S25L/Y31M/K36A/W56G/A57C | 0.52, 0.77, 0.60, 0.34, 0.22, 0.38 | 0.47 | 2 of 18 |
| S25D/H98A | nd, 1.04, nd, 0.78, nd, 1.18 | 1.00 | 0 of 18 |
| W56E/Q96T/H98D | 1.02, 0.75, 0.53, 0.07, 0.26, 0.79 | 0.57 | 0 of 18 |
| Q27S/S58T/T59H/S103E | nd, 2.37, 3.33, 2.42, 2.45, nd | 2.64 | 1 of 18 |